Source: patent US20250340886A1, “INTRACELLULAR KINASE ASSOCIATED WITH RESISTANCE AGAINST ANTI-TUMOUR IMMUNE RESPONSES, AND USES THEREOF” (iOmx Therapeutics AG, priority 2017, published 2025)

Tested on: M579-A2-luc tumour cells
Assay: luciferase-based tumour cell viability assay, M579-A2-luc cells with inhibitor and TNF
Conditions: SIK1 and SIK2-knocked down M579-A2-luc cells; TNF 100 ng/mL; titrating doses

## Cc1nc(Nc2ncc(C(=O)Nc3c(C)cccc3Cl)s2)cc(N2CCN(CCO)CC2)n1 [Compound A8, N-(2-chloro-6-methylphenyl)-2-((6-(4-(2-hydroxyethyl)piperazin-1-yl)-2-methylpyrimidin-4-yl)amino)thiazole-5-carboxamide, reference compound]
  response of tumour cells to the drug (Luc CTL assay): still responded to titrating doses of dasatinib
